The nature of one series: clinical. The following applies: human, in vivo.
Another series is filed under the species Homo sapiens. In words: Selectivity ratio of IC50 for C-terminal His-tagged recombinant human CYP21A2deltaH mutant to IC50 for C-terminal His-tagged recombinant human CYP17A1delta19H mutant.
The next series deals with Steroid 21-hydroxylase (Homo sapiens, UniProt P08686). The series is described as follows: Inhibition of C-terminal His-tagged recombinant human CYP21A2deltaH mutant expressed in Escherichia coli DH5alpha assessed as decrease in progesterone hydroxylation preincubated for 3 mins followed by NADPH addition measured after 8 mins in presence of cytochrome p450 reductase by LC-MS/MS method.

The chains behind the UniProt entries cited, without tags or fusion partners. Where a name states a change or a piece, a line headed by the entry shows the natural chain unless it says otherwise.
UniProt P08686: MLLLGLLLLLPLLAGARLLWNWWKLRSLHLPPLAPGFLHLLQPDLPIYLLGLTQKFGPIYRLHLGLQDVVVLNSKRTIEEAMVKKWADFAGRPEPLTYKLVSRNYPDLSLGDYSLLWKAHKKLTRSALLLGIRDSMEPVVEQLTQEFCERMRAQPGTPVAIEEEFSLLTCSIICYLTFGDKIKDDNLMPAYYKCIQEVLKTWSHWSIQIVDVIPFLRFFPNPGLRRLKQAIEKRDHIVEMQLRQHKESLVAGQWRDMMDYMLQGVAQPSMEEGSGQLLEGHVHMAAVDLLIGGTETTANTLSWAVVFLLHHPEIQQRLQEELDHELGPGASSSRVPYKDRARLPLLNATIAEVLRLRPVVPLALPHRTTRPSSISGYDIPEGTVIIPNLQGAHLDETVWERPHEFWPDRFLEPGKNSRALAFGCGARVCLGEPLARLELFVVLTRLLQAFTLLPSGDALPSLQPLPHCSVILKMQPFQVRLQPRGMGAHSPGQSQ

By Cmax is commonly meant the highest concentration seen after dosing. One may read the IC50 as the concentration at which inhibition is half-maximal. For `C[C@]12CC[C@H](O)CC1=CC[C@@H]1[C@@H]2CC[C@]2(C)C(c3cccnc3)=CC[C@@H]12` [ABIRATERONE], the peak level in “clinical” (Cmax) was 90 nM. In addition, in the series filed under Homo sapiens, the Ratio IC50 amounted to 6.6. Also, at Steroid 21-hydroxylase, the IC50 came out at 32.4 nM.

Consider `C[C@]12CC[C@H](O)CC1=C(C#N)C[C@@H]1[C@@H]2CC[C@]2(C)C(c3cccnc3)=CC[C@@H]12`, for which the half-maximal inhibitory concentration (IC50) on Steroid 21-hydroxylase is 23.9 nM.

Values taken from ChEMBL document CHEMBL4184341, “Structure-Based Design of Inhibitors with Improved Selectivity for Steroidogenic Cytochrome P450 17A1 over Cytochrome P450 21A2” (J Med Chem, 2018).
